Compound activity as filed in PubChem.
ClpP mod – qHTS Assay for Activators of ClpP. ATP-dependent Clp protease proteolytic subunit (Bacillus subtilis (strain 168)), P80244. purified B. subtilis ClpP, FRET peptide cleavage, 20 min. Potency, µM (titrated, usually from 57.5 µM). 340,000 compounds, 1.9% hits. AID 651965, 2013; active means well fitted falling curve with a large enough effect; inconclusive means small, poorly fitted or top-dose-only effect; inactive means no such curve, though single readings can be large or run the other way; further: the source files actives as falling curves though it sought activators and does not explain the sign; nearly all actives have a fitted effect of over 65% in size
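Purified B. subtilis ClpP, 10 microg/mL final in Tris/HCl pH8 with KCl, BSA, glycerol and Tween-20, cleaved an Abz/nitrotyrosine-quenched decapeptide. Fluorescence (ex 320, em 430) was read at 0 and 20 min at room temperature. Delta was normalized to 5.8 microM ADEP and DMSO/no-enzyme controls.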
A549 tox-1 – counter-screen for Nrf2 inhibitors: cytotoxicity in A549 cells; Potency, µM (titrated, usually from 46 µM), hits mostly inhibitors; 390,000 compounds, 0.16% hits; A549 ARE-Fluc cells, CellTiter-Fluor viability, 18-24 h; AID 504648
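Cytotoxicity counterscreen: CellTiter-Fluor fluorescence was measured in A549 ARE_Fluc cells after 18-24 h of compound exposure in a concentration series. The subsequent BugLite luminescent read reports ARE-luciferase activity.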
IL2 activator – activators of IL-2. IL-2 activation reporter assay, cell-based qHTS; stimulated with anti-CD3/CD4/CD28 beads; in transgenic mouse T cells. activation, % (series mostly up to about 46 µM). 360,000 compounds, 0.065% hits; in the data active means activation above about 50%; inconclusive means mostly about 30% to 49%
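Unstimulated transgenic mouse T cells, 750 per well, received compound and, after 60 minutes, anti-CD3/anti-CD4 bead plus anti-CD28 stimulation. EGFP and DsRed were quantified after 18 hours.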
miR-21 reporter – miR-21 reporter, rising signal | HeLa miR-21 FLuc reporter, luciferase, 48 h | Potency, µM (highest dose often 38.3 µM) | 340,000 tested, under 10 active | AID 2288; active = well fitted rising curve with a large enough effect; inconclusive = small, poorly fitted or top-dose-only effect; inactive = no such curve, though single readings can be large or run the other way;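 further: miR-21 action dims this reporter so a rising signal means less miR-21 action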
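HeLa cells endogenously expressing miR-21, stably carrying CMV-driven firefly luciferase with a downstream miR-21 binding site, 2000 cells/well. Titrations up to approximately 40 uM, 48 hours; luciferase luminescence read.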
Nrf2 ARE act – Nrf2 pathway activation. AREc32 ARE-luciferase reporter (MCF7-derived line), luminescence, 24 h. 410,000 compounds, 0.31% hits. Potency, µM (highest dose often 46.1 µM), most hits filed as activators; further: nearly all actives have a fitted effect of over 65% in size
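Steps: seed AREc32_Fluc cells (1000/well, 5% FBS OPTI-MEM); incubate overnight at 37 deg C; add 23 nL compound; incubate 24 hr; add Steady-Glo; hold 30 min RT; read luminescence.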
Nrf2 inh – inhibitors of Nrf2 signaling. A549 ARE-Fluc reporter, luciferase luminescence, 18-24 h. Potency, µM (highest dose often 46 µM), most hits filed as inhibitors. 360,000 compounds, 2.1% hits. AID 504444; further: nearly all actives have a fitted effect of over 60% in size
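Quantitative HTS in A549 cells stably bearing an antioxidant response element-firefly luciferase construct. Inhibition of Nrf2-driven transcription was scored by luminescence after 18-24 h of compound exposure at 37 °C.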
FLuc enzyme inh – counter-screen for Nrf2 inhibitors: firefly luciferase enzyme inhibition; 1,400 compounds, 4% hits; AID 720522; shares compounds with Nrf2 inh; Potency, µM (top dose mostly 57.5 µM), usual class: inhibitors; purified firefly luciferase, luminescence inhibition; further: nearly all actives have a fitted effect of over 65% in size
A549 tox-2 – toxic to A549 ARE-Fluc cells in Nrf2 counterscreen; shares compounds with Nrf2 inh; A549 ARE-Fluc cells, cytotoxicity counterscreen; Potency, µM (series often up to 46.1 µM), hits mostly inhibitors; 1,400 compounds, 2% hits; AID 720523;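 further: cells exposed to compounds for 18 to 24 hours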
ARE-Fluc inh – reduces Nrf2 ARE reporter signal in A549 cells; shares compounds with Nrf2 inh; A549 ARE-firefly luciferase reporter, luminescence; Potency, µM (series often up to 46.1 µM), actives largely listed as inhibitors; 1,400 compounds, 74% hits; AID 720524; further: nearly all actives have a fitted effect of over 65% in size
Numbers stand for hits. In the library only some 3.7% were active in any assay of this set; here they are far more common. Unless noted, the call rests on the fitted dose curve; in most records, active means well fitted curve in the direction sought with a large enough effect; inconclusive means small, poorly fitted or top-dose-only effect, or another doubt; inactive means no such curve, though single readings can be large; an effect the other way counts as inactive or inconclusive.

Results for COc1ccc(CCNC(=O)COc2ccc(N(C)S(=O)(=O)c3ccc(Cl)cc3)cc2)cc1 ?
A549 tox-1: inactive; IL2 activator: inactive; miR-21 reporter: inactive; Nrf2 ARE act: inactive; Nrf2 inh: 3.7µM; FLuc enzyme inh: inactive; A549 tox-2: inactive; ARE-Fluc inh: 18µM

How did CCN(CC(=O)Nc1c(F)cccc1F)C(=O)c1cc(S(=O)(=O)N(CC)CC)ccc1N1CCCCC1 do in these assays?
ClpP mod: inactive; A549 tox-1: inactive; IL2 activator: inactive; miR-21 reporter: inactive; Nrf2 ARE act: inactive; Nrf2 inh: 8.2µM; FLuc enzyme inh: inactive; A549 tox-2: inactive; ARE-Fluc inh: 10µM

Results for COc1ccc(NC(=O)c2cc(S(=O)(=O)N3CCCC3)cn2C)cc1Cl ?
ClpP mod: inactive; A549 tox-1: inactive; IL2 activator: inactive; miR-21 reporter: inactive; Nrf2 ARE act: inactive; Nrf2 inh: 3.7µM; FLuc enzyme inh: inactive; A549 tox-2: inactive; ARE-Fluc inh: inactive

How did COc1ccc(CC(=O)Nc2cccc(SC)c2)cc1OC do in these assays?
A549 tox-1: inactive; IL2 activator: inactive; miR-21 reporter: inactive; Nrf2 ARE act: inactive; Nrf2 inh: 2.9µM; FLuc enzyme inh: inactive; A549 tox-2: inactive; ARE-Fluc inh: 8.2µM

Results for COc1ccc(CC(=O)Nc2cccc(S(=O)(=O)N3CCCCCC3)c2)cc1OC ?
ClpP mod: inactive; A549 tox-1: inconclusive; IL2 activator: inactive; miR-21 reporter: inactive; Nrf2 ARE act: inactive; Nrf2 inh: 1.8µM; FLuc enzyme inh: inactive; A549 tox-2: inactive; ARE-Fluc inh: 4.1µM

Results for COc1ccc(NC(C)C(=O)Nc2cccc(S(=O)(=O)N3CCOCC3)c2)cc1OC (stereo unspecified) ?
ClpP mod: inactive; A549 tox-1: inconclusive; IL2 activator: inactive; Nrf2 ARE act: inactive; Nrf2 inh: 6.5µM; FLuc enzyme inh: inactive; A549 tox-2: inactive; ARE-Fluc inh: 6.5µM

How did COc1ccc(CCC(=O)Nc2cccc(S(=O)(=O)N3CCCCCC3)c2)cc1OC do in these assays?
ClpP mod: inactive; A549 tox-1: inconclusive; IL2 activator: inactive; Nrf2 ARE act: inactive; Nrf2 inh: inconclusive

Results for CN(C)CCNC(=O)CN1C(=O)COc2ccc(S(=O)(=O)N3CCCC3)cc21 ?
ClpP mod: inactive; A549 tox-1: inactive; miR-21 reporter: inactive; Nrf2 ARE act: inactive; Nrf2 inh: inactive

What do the screens show for `COc1ccc(-c2noc(-c3ccc(C)cc3Cl)n2)cc1OC`?
ClpP mod: inactive; A549 tox-1: inactive; miR-21 reporter: inactive; Nrf2 ARE act: inactive; Nrf2 inh: inconclusive

Results for Cc1c(Cl)cccc1NC(=O)CCn1nc(C)c2c(C)n(-c3ccccc3)nc2c1=O ?
ClpP mod: inactive; A549 tox-1: inactive; miR-21 reporter: inactive; Nrf2 ARE act: inactive; Nrf2 inh: inactive

What do the screens show for `CC1=C(c2ccc(C)cc2)S(=O)(=O)N=C1N1CCN(c2ccccc2)CC1`?
ClpP mod: inactive; A549 tox-1: inactive; miR-21 reporter: inactive; Nrf2 ARE act: inactive; Nrf2 inh: inconclusive

What do the screens show for `O=S(=O)(NCc1cn2ccsc2n1)c1ccc(Oc2ccccc2)cc1`?
ClpP mod: inactive; A549 tox-1: inconclusive; IL2 activator: inactive; miR-21 reporter: inactive; Nrf2 ARE act: inactive; Nrf2 inh: 7.3µM; FLuc enzyme inh: inactive; A549 tox-2: inactive; ARE-Fluc inh: 7.3µM

What do the screens show for `O=S(=O)(NCc1cn2ccsc2n1)c1cccs1`?
ClpP mod: inactive; A549 tox-1: inactive; IL2 activator: inactive; miR-21 reporter: inactive; Nrf2 ARE act: inactive; Nrf2 inh: inconclusive

How did Cc1ccc(CC(=O)Nc2ccncc2)cc1 do in these assays?
ClpP mod: inactive; A549 tox-1: inactive; IL2 activator: inactive; miR-21 reporter: inactive; Nrf2 ARE act: inactive; Nrf2 inh: inconclusive

How did O=C(Cc1ccc(Cl)cc1)Nc1ccncc1 do in these assays?
ClpP mod: inactive; A549 tox-1: inactive; IL2 activator: inactive; miR-21 reporter: inactive; Nrf2 ARE act: inactive; Nrf2 inh: 5.8µM; FLuc enzyme inh: inactive; A549 tox-2: inactive; ARE-Fluc inh: inactive

What do the screens show for `CC1Sc2ccc(S(=O)(=O)N3CCN(c4cccc(Cl)c4)CC3)cc2NC1=O` (stereo unspecified)?
ClpP mod: inactive; A549 tox-1: inactive; IL2 activator: inactive; miR-21 reporter: inactive; Nrf2 ARE act: inactive; Nrf2 inh: inactive

What do the screens show for `Cc1ccc(C)c(N2CCN(C(=O)CCS(=O)(=O)c3ccc4c(c3)NC(=O)C(C)S4)CC2)c1` (stereo unspecified)?
ClpP mod: inactive; A549 tox-1: inactive; IL2 activator: inactive; miR-21 reporter: inactive; Nrf2 ARE act: inactive; Nrf2 inh: 6.5µM; FLuc enzyme inh: inactive; A549 tox-2: inactive; ARE-Fluc inh: 6.5µM

How did CC(=O)c1cccc(NC(=O)C2CCN(S(=O)(=O)c3ccc(C)cc3)CC2)c1 do in these assays?
ClpP mod: inactive; A549 tox-1: inactive; IL2 activator: inactive; miR-21 reporter: inactive; Nrf2 ARE act: inactive

How did Cc1ccc(S(=O)(=O)N2CCC(C(=O)Nc3ccc(C)c(Cl)c3)CC2)cc1 do in these assays?
ClpP mod: inactive; A549 tox-1: inactive; miR-21 reporter: inactive; Nrf2 ARE act: inactive; Nrf2 inh: inconclusive; FLuc enzyme inh: inactive; A549 tox-2: inactive; ARE-Fluc inh: 7.3µM

What do the screens show for `Cc1ccc(NC(=O)C2CCN(S(=O)(=O)c3ccc4c(c3)NC(=O)C(C)S4)CC2)cc1Cl` (stereo unspecified)?
ClpP mod: inactive; A549 tox-1: inconclusive; IL2 activator: inactive; miR-21 reporter: inconclusive; Nrf2 ARE act: inactive; Nrf2 inh: 1.3µM; FLuc enzyme inh: inactive; A549 tox-2: inactive; ARE-Fluc inh: 9.2µM

What do the screens show for `CC1Sc2ccc(S(=O)(=O)N3CCN(c4ccccc4)CC3)cc2NC1=O` (stereo unspecified)?
ClpP mod: inactive; A549 tox-1: inactive; IL2 activator: inactive; miR-21 reporter: inactive; Nrf2 ARE act: inactive; Nrf2 inh: 7.3µM; FLuc enzyme inh: inactive; A549 tox-2: inactive; ARE-Fluc inh: inconclusive

Results for Cc1ccccc1NC(=O)C1CCN(S(=O)(=O)c2ccc3c(c2)NC(=O)C(C)S3)CC1 (stereo unspecified) ?
ClpP mod: inactive; A549 tox-1: inactive; IL2 activator: inactive; miR-21 reporter: inactive; Nrf2 ARE act: inactive; Nrf2 inh: inactive
